Protein sequences, listed by entry. Tags and fused reporters are not part of them.
Guanine nucleotide-binding protein G(i) subunit alpha-3 (Rattus norvegicus), P08753, UniProt P08753, whole entry, looked up: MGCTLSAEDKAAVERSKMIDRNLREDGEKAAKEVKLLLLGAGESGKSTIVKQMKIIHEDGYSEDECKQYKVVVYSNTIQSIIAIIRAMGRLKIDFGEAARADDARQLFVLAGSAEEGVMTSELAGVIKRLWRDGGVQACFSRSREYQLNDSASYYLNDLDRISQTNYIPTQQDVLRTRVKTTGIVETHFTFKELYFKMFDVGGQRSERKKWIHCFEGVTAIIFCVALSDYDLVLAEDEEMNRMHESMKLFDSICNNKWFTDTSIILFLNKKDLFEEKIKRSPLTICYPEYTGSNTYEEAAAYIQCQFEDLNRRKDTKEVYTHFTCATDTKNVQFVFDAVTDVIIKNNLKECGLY

# Screening results: PubChem, ICCB-Longwood Screening Facility, Harvard Medical School
# This is a sample that favours compounds with a hit; in the whole collection about 0.46% have one here.
# HCMV UL50-53 inh: inhibitors of HCMV UL50-UL53 nuclear egress complex interaction; inhibition, % (concentration not given with the values); HTRF UL50-UL53 interaction, normalized percent inhibition; 0.15% of 190,000 active; in the data active = inhibition above about 27%, passing the limit was not always enough
# GIV-Gai inh: inhibitors of GIV peptide binding to Galpha-i3, primary screen, biochemical, fluorescence polarization, FITC-GIV GBA peptide, rat Galphai3. Guanine nucleotide-binding protein G(i) subunit alpha-3 (Rattus norvegicus), P08753. 90 min; stronger effect = lower value; scaled: aluminum fluoride 0%, vehicle 100%. percent of control (FP), % (test concentration not listed). hit rate 0.42% among 210,000. AID 1224905, 2016;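 active = replicate mean at 85% of control or lower, very high polarization wells dropped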;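 note: wells of about 15 µL received 100 nL stock; the first replicate is given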
# A number is an active result; 0 = inactive; - = not tested or not shown.
SMILES,HCMV UL50-53 inh,GIV-Gai inh
CC(=O)N1CC=C2C(C#N)=C(N)C(C#N)(C#N)C(Cc3ccccc3)C2C1 (stereo not drawn),0,0
N#CC1=C(N)C(C#N)(C#N)C(c2ccc(Cl)cc2)C2CN(Cc3ccccc3)CC=C12 (stereo not drawn),-,-58
CC(C)CC1C2CN(Cc3ccccc3)CC=C2C(C#N)=C(N)C1(C#N)C#N (stereo not drawn),0,0
CN1CC=C2C(C#N)=C(N)C(C#N)(C#N)C(CCc3ccccc3)C2C1 (stereo not drawn),0,-8.8
CCCC1C2CN(Cc3ccccc3)CC=C2C(C#N)=C(N)C1(C#N)C#N (stereo not drawn),0,20
Cc1ccccc1NC(=S)N1CCCCC1,0,0
CCC1CCCCN1Cc1c(O)ccc2cc(-c3nc(C)cs3)c(=O)oc12 (stereo not drawn),0,-
CC1CCCCN1Cc1c(O)ccc2cc(-c3nc4ccccc4s3)c(=O)oc12 (stereo not drawn),0,-32
CC(CC(=O)Oc1ccc(C#N)cc1)S(=O)(=O)c1ccc(Cl)cc1 (stereo not drawn),0,0
Cc1ccc(S(=O)(=O)c2nnn3c2nc(NCC2CCCO2)c2cc(Cl)ccc23)cc1C (stereo not drawn),0,0
COc1cccc2c1C(=O)c1c(O)c3c(c(O)c1C2=O)C[C@@](O)(C(C)=O)CC3O[C@H]1CC(N)C(O)C(C)O1 (stereo partly drawn),0,-
COc1cccc2c1C(=O)c1c(O)c3c(c(O)c1C2=O)C[C@@](O)(C(=O)CO)CC3O[C@H]1CC(N)C(O)C(C)O1 (stereo partly drawn),0,-
COc1cccc2c1C(=O)c1c(O)c3c(c(O)c1C2=O)C[C@@](O)(C(C)=O)C[C@@H]3O[C@H]1C[C@H](N)[C@H](O)[C@H](C)O1,0,47
CC(=O)[C@]1(O)Cc2c(O)c3c(c(O)c2[C@@H](O[C@H]2C[C@H](N)[C@H](O)[C@H](C)O2)C1)C(=O)c1ccccc1C3=O,0,-46
O=C(Nc1nc(CSc2nc3ccccc3s2)cs1)C1CC1,0,-
Cc1ccc2c3c(c(N)c(=O)[nH]c13)-c1ccccc1C2=O,-,76
CCOC(=O)c1c2c3c(cccc3[nH]c1=O)C(=O)c1ccccc1-2,0,-
COc1ccc(Cl)cc1NC(=O)C(C)Sc1nnc2ccc3ccccc3n12 (stereo not drawn),0,0
Cc1cc2nc(CN3CCCc4ccccc43)cc(=O)n2o1,0,75
Cc1cc2nc(COc3ccccc3)cc(=O)n2o1,0,0
CNc1nc2ccccn2c(=O)c1/C=C1\SC(=S)N(C)C1=O,-,0
Cc1ccc2nc(Sc3ccccc3)c(/C=C3\SC(=S)N(C)C3=O)c(=O)n2c1,-,-36
CCN1C(=O)/C(=C\c2ccc(OCC(N)=O)c(OC)c2)SC1=S,0,-
COC(=O)CN1C(=O)/C(=C\c2ccc(O)cc2)SC1=S,-,-42
CCOC(=O)CN1C(=O)/C(=C/c2ccccc2)SC1=S,0,-
SMILES,HCMV UL50-53 inh,GIV-Gai inh
COC(=O)CN1C(=O)C(=Cc2ccc(N(C)C)cc2)SC1=S,-,-42
COC(=O)CN1C(=O)S/C(=C\c2ccccc2)C1=O,0,0
CCCN1C(=O)/C(=C/c2ccc(O)c(OC)c2)SC1=S,0,-34
COC(=O)c1ccccc1NC(=O)N1CCOc2ccccc21,0,0
CN1c2ccccc2Oc2nnc(N3CCN(Cc4ccccc4)CC3)cc21,0,0
CN1c2ccccc2Oc2nnc(Cl)cc21,105,0
Cc1csc(SCC(=O)Nc2cc(C(C)(C)C)no2)n1,0,-
C=CCn1nnnc1NCc1ccccc1,0,0
Cc1ccc2nc(COc3ccc(NC(=O)Nc4ccc(Cl)cc4)cc3)cc(=O)n2c1,-,85
CCOc1ccc(NC(=O)Nc2cccc(OCc3cc(=O)n4cc(Cl)ccc4n3)c2)cc1,-,0
CCc1ccc(S(=O)(=O)c2nnn3c2nc(NC(C)C)c2sccc23)cc1,-,0
CC(C)Nc1nc2c(S(=O)(=O)c3ccccc3)nnn2c2ccsc12,37,0
COCCCN1C(=O)/C(=C\c2c(N3CC(C)OC(C)C3)nc3c(C)cccn3c2=O)SC1=S (stereo not drawn),-,0
Cc1cccn2c(=O)c(/C=C3\SC(=S)N(CCCC(=O)O)C3=O)c(NCCc3ccccc3)nc12,-,0
Cc1cccn2c(=O)c(/C=C3\SC(=S)N(CCCC(=O)O)C3=O)c(N3CCCCC3)nc12,-,40
Cc1cccn2c(=O)c(/C=C3\SC(=S)N(C)C3=O)c(N3CCCC3)nc12,-,-36
C1CCC(N2CCN(C3CCCC3)CC2)C1,0,0
Cc1onc(-c2ccccc2Cl)c1C(=O)Nc1cc2c(cc1N1CCOCC1)n(C)c(=O)n2C,0,0
Cc1nc(-c2ccc(Cl)c(S(=O)(=O)N3CCCC(C(=O)N4CCCC4)C3)c2)no1 (stereo not drawn),-,0
CN(C)c1ccc(N=Cc2nc(-c3ccccc3)oc2O)cc1,-,-24
CN(C)c1ccc(N=Cc2nc(-c3ccccc3)oc2OC(=O)c2ccccc2)cc1,0,-
O=c1[nH]c(SCc2cccc(Cl)c2)nc2nc[nH]c12,0,0
O=C(Oc1cccc2c1C(=O)C=CC2=O)c1ccccc1,65,0
O=C(Oc1ccccc1OC(=O)c1ccccc1)c1ccccc1,-,0
CC(C)C(=O)n1nc(-c2ccc(Cl)cc2)nc1N,0,0
SMILES,HCMV UL50-53 inh,GIV-Gai inh
COc1cc(C=C2C(=O)NC(=O)NC2=O)ccc1Oc1ccc([N+](=O)[O-])cc1[N+](=O)[O-],49,0
COc1cc(C=C2C(=O)NC(=O)NC2=O)ccc1OCc1ccccc1[N+](=O)[O-],0,0
COc1cc([N+](=O)[O-])c(Cl)cc1N=Cc1c(C)[nH]n(-c2cccc(Cl)c2)c1=O,-,0
COc1ccc(OC)c(C2CC(c3ccc(OC)c(OC)c3)=NN2C(=O)c2ccc(Br)o2)c1 (stereo not drawn),0,0
N/C(Cc1nc2ccccc2s1)=N\O,52,0
c1ccc2sc(CCc3nc4ccccc4s3)nc2c1,0,-
CCOC(=O)N1CCN(C(=O)c2sc3ncn(CC(=O)Nc4ccc(C)c(Cl)c4)c(=O)c3c2C)CC1,-,0
CCCCOc1ccc(C2CC(=O)Nc3c2c(C)nn3-c2ccc3nnc(C)n3n2)cc1OCC (stereo not drawn),-,75
CCCOc1ccc(C2CC(=O)Nc3c2c(C)nn3-c2ccc3nnc(C)n3n2)cc1OCC (stereo not drawn),-,0
CCN1CC=C2C(C1)C(c1ccc(Cl)s1)C(C#N)=C(N)C2(C#N)C#N (stereo not drawn),0,-52
CCCN1CC=C2C(C1)C(c1ccc(C(=O)OC)cc1)C(C#N)=C(N)C2(C#N)C#N (stereo not drawn),0,0
O=C(Nc1ccccc1C(=O)O)c1cc2ccccc2c(=O)o1,0,0
COc1cccc2c1CC/C(=C\c1ccc(N(C)C)cc1)C2=O,0,-69
CC(C)C/C=C1\CC/C(=C\c2ccc(N(C)C)cc2)C1=O,0,-74
CCCN1C/C(=C\c2ccc(N(C)C)cc2)C(=O)/C(=C/c2ccc(N(C)C)cc2)C1,0,0
CN(C)c1ccc(/C=C2\CCC(=C3SCCCS3)C2=O)cc1,0,-
O=C(/C=C/c1ccccc1)OCc1nc2ccccc2s1,0,-
Cn1nc(C(=O)Nc2ccc(Cl)cc2)ccc1=O,0,-
N#Cc1ccc(OC(=O)Cc2coc3cc4c(cc23)CCC4)cc1,0,-
